This note sets out measurements from ChEMBL document CHEMBL1145967, “Design, synthesis, and biological activities of classical N-[4-[2-(2-amino-4-ethylpyrrolo[2,3-d]pyrimidin-5-yl)ethyl]benzoyl]-l-glutamic acid and its 6-methyl derivative as potential dual inhibitors of thymidylate synthase and dihydrofolate reductase and as potential antitumor agents” (J Med Chem, 2003).

The experiment addresses T1, Dihydrofolate reductase (Homo sapiens, UniProt P00374).
T1 sequence (P00374 whole entry): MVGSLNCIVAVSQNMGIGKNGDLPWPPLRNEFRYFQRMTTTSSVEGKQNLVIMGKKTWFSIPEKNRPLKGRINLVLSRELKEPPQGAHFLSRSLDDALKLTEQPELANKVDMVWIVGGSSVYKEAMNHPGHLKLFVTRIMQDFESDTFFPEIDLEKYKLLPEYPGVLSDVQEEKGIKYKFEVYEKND

As to `Nc1nc2[nH]cc(CCc3ccc(C(=O)N[C@@H](CCC(=O)O)C(=O)O)cc3)c2c(=O)[nH]1` [PEMETREXED], inhibition was half-maximal at 1400 nM (IC50).
